# Reported water solubility values for industrial, environmental and drug-like chemicals

Source: data files of OPERA 2.9 (Mansouri et al.), github.com/kmansouri/OPERA.

Solubility in water is on a log10 molar scale (set defined at 25 °C).

SMILES,log solubility (log10 mol/L)
CCC(=O)C(C)C(=O)O (stereo unspecified),-0.637
CC(=O)O.CC1CN(C2CCCCCCCCCCC2)CC(C)O1 (stereo unspecified),-2.66
ONc1ncnc2[nH]cnc12,-2.4
NS(=O)(=O)c1cc2c(s1)S(=O)(=O)CCC2,-2.679
NNc1nncc2ccccc12,-1.996
CCCCC(Cc1cc(C(C)(C)C)c(O)c(C(C)(C)C)c1)(C(=O)OC1CC(C)(C)N(C)C(C)(C)C1)C(=O)OC1CC(C)(C)N(C)C(C)(C)C1,-5.685
c1ccc2c(c1)ccc1cc3c(ccc4ccccc43)cc12,-8.483
CCCc1nc(N)nc(N)n1,-0.916
O=C1NC(=S)S/C1=C\c1ccc(O)c(O)c1,-3.343
O=[N+]([O-])c1ccc(/N=N/c2c([O-])ccc3ccccc23)c([O-])c1.O=[N+]([O-])c1ccc(/N=N/c2c([O-])ccc3ccccc23)c([O-])c1.[Cr+3].[Na+],-4.477
CCCCCC(O)CCC (stereo unspecified),-2.586
Brc1ccc(-c2ccc(Br)cc2)cc1,-7.74
CCC/C=C/CCCCCCCOC(C)=O,-4.611
Cc1noc(C)c1NS(=O)(=O)c1ccc(N)cc1,-3.184
O=C(O)C1C2C=CC(C2)C1C(=O)O (stereo unspecified),-1.711
CN(C)CCC(O)(c1ccccc1)c1ccccc1Cl (stereo unspecified),-3.669
O=c1cnc2c(=O)nc[nH]c2[nH]1,-2.817
O=C(O)C1c2ccccc2C(C(=O)O)c2ccccc21 (stereo unspecified),-2.73
Cc1ccccc1N=Nc1ccc(N=Nc2c(O)ccc3ccccc23)c(C)c1,-7.219
Nc1nc(N)c(N=O)c(N)n1,-3.845
Cc1oc2ccccc2c(=O)c1C,-2.065
Oc1ccnc2cccnc12,-2.244
O=C(CCBr)N1CCN(C(=O)CCBr)CC1,-2.201
NC(=O)NN=CC=Cc1ccc([N+](=O)[O-])o1,-3.144
CCCN1CCCC[C@H]1C(=O)Nc1c(C)cccc1C,-3.035
O=C(O)c1c(Cl)c(Cl)c(C(=O)O)c(Cl)c1Cl,-2.48
Cn1cc(C(O)=Nc2ccccc2C2CC2C2CC2)c(C(F)F)n1 (stereo unspecified),-4.37
Cn1c(=O)c2nc(C(=O)O)c(=O)[nH]c2n(C)c1=O,-2.323
CCCCCCOC(=O)C(C)OC(C)=O (stereo unspecified),-0.855
CC(CC(=O)OCC(COC(=O)CC(C)CC(C)(C)C)OC(=O)CC(C)CC(C)(C)C)CC(C)(C)C (stereo unspecified),-7.011
Nc1ccc(Nc2ccc(N)cc2S(=O)(=O)O)cc1,-2.793
Nc1nc(=O)c2ncc(=O)[nH]c2[nH]1,-4.548
CC(CC(=O)[O-])CC(C)(C)C.CC(CC(=O)[O-])CC(C)(C)C.[Ca+2] (stereo unspecified),-2.413
C=CC(=O)CCC,-0.83
Cc1nc2c(=O)n(C)c(=O)n(C)c2n1C,-2.142
O=c1[nH]c(=O)c2ccccc2[nH]1,-3.099
CC[C@H](NC(=O)[C@H](CC)NC(=O)[C@H](CC)NC(=O)[C@H](CC)NC(=O)[C@H](CC)NC(=O)[C@@H](N)CC)C(=O)O,-2.682
CCOC(=O)c1ccc(/N=N/c2ccc(N)cc2N)cc1,-3.375
Cn1cc(C(O)=Nc2ccccc2-c2cc(F)c(F)c(F)c2)c(C(F)F)n1,-5.04

Again, the 5 entries with the lowest log solubility:

SMILES	log solubility (log10 mol/L)
c1ccc2c(c1)ccc1cc3c(ccc4ccccc43)cc12	-8.483
Brc1ccc(-c2ccc(Br)cc2)cc1	-7.74
Cc1ccccc1N=Nc1ccc(N=Nc2c(O)ccc3ccccc23)c(C)c1	-7.219
CC(CC(=O)OCC(COC(=O)CC(C)CC(C)(C)C)OC(=O)CC(C)CC(C)(C)C)CC(C)(C)C (stereo unspecified)	-7.011
CCCCC(Cc1cc(C(C)(C)C)c(O)c(C(C)(C)C)c1)(C(=O)OC1CC(C)(C)N(C)C(C)(C)C1)C(=O)OC1CC(C)(C)N(C)C(C)(C)C1	-5.685

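OPERA's authors assembled the values from existing databases and did not measure them anew. A listed value is a point estimate from one report or more. Conditions of the individual experiments are not part of the data. Where a salt, mixture or single isomer is drawn, the source does not say that exactly this form was tested. Some upstream entries may be estimates or bounds without being marked so.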